Converted amounts (≈) assume the structure as drawn. One block for each molecule: values may come before it.
Assays:
Assay in all cases: ≥ marks a high value that may be exact or a test limit, other limits are often not marked, values filed in µg/mL are converted to µM
[1] = system: Pseudomonas syringae pv. syringae EPS 94
[2] = system: Erwinia amylovora PMV 6076
[3] = system: Xanthomonas campestris pv. Vesicatoria 2133-2
Pseudomonas putida = system: Pseudomonas putida
Candida albicans = system: Candida albicans
Staphylococcus aureus = system: Staphylococcus aureus
Bacillus subtilis = system: Bacillus subtilis
Salmonella typhimurium = system: Salmonella typhimurium
Serratia marcescens = system: Serratia marcescens
Streptococcus mutans = system: Streptococcus mutans
Cryptococcus neoformans = system: Cryptococcus neoformans
Saccharomyces cerevisiae = system: Saccharomyces cerevisiae
Streptococcus pneumoniae = system: Streptococcus pneumoniae
Escherichia coli = system: Escherichia coli
[4] = system: Staphylococcus epidermidis ATCC 12228
[5] = system: Staphylococcus epidermidis ATCC 14990
[6] = system: Pseudomonas aeruginosa ATCC 10145
[7] = system: Escherichia coli ATCC 11775
[8] = system: Staphylococcus aureus ATCC 6538

Compound: CC[C@H](C)[C@H](NC(=O)[C@H](CC(C)C)NC(=O)[C@H](C)NC(=O)[C@@H]1CCCN1C(=O)[C@H](CC(C)C)NC(=O)CNC(=O)[C@@H](NC(=O)[C@@H](NC(=O)[C@H](C)NC(=O)[C@@H]1CCCN1C(=O)CNC(=O)[C@H](C)NC(=O)[C@H](CC(C)C)NC(=O)[C@H](Cc1ccc(O)cc1)NC(=O)[C@H](CCCCN)NC(=O)[C@H](CC(C)C)NC(=O)[C@@H](NC(=O)[C@H](CCCCN)NC(=O)[C@H](CCCCN)NC(=O)[C@H](Cc1ccccc1)NC(=O)[C@H](CC(C)C)NC(=O)[C@H](CCCCN)NC(=O)[C@@H](N)CCCCN)[C@@H](C)CC)[C@@H](C)O)[C@@H](C)O)C(=O)N[C@@H](CO)C(=O)N[C@@H](Cc1c[nH]c2ccccc12)C(=O)O [KKLFKKILKYLAGPATTGLPALISW]
MIC [1]: 1.77 µM (≈ 4.88 µg/mL)
MIC [2]: 3.54 µM (≈ 9.75 µg/mL)
MIC [3]: 3.54 µM (≈ 9.75 µg/mL)

MIC (Pseudomonas putida): 9.96 µM (≈ 16 µg/mL)
MIC (Candida albicans): 39.9 µM (≈ 64 µg/mL)
MIC (Staphylococcus aureus): 39.9 µM (≈ 64 µg/mL)
MIC (Bacillus subtilis): 9.96 µM (≈ 16 µg/mL)
MIC (Salmonella typhimurium): 9.96 µM (≈ 16 µg/mL)
MIC (Serratia marcescens): 19.9 µM (≈ 32 µg/mL)
MIC (Streptococcus mutans): 19.9 µM (≈ 32 µg/mL)
MIC (Cryptococcus neoformans): ≥ 39.9 µM
MIC (Saccharomyces cerevisiae): ≥ 39.9 µM
MIC (Streptococcus pneumoniae): 9.96 µM (≈ 16 µg/mL)
MIC (Escherichia coli): 19.9 µM (≈ 32 µg/mL)
Compound: CC(C)C[C@H](NC(=O)[C@H](CC(C)C)NC(=O)[C@H](CCCN=C(N)N)NC(=O)[C@H](Cc1cnc[nH]1)NC(=O)[C@@H](NC(=O)[C@H](CCCN=C(N)N)NC(=O)CNC(=O)[C@@H](NC(=O)[C@@H]1CCCN1C(=O)[C@H](Cc1ccccc1)NC(=O)[C@@H](N)CCC(N)=O)C(C)C)C(C)C)C(=O)N[C@@H](CCCN=C(N)N)C(=O)N[C@@H](CCCCN)C(=O)O [QFPVGRVHRLLRK]

MIC [4]: 4.91 µM (≈ 12.5 µg/mL)
MIC [5]: 4.91 µM (≈ 12.5 µg/mL)
MIC [6]: 2.47 µM (≈ 6.3 µg/mL)
MIC [7]: 1.74 µM (≈ 4.42 µg/mL)
MIC [8]: 4.91 µM (≈ 12.5 µg/mL)
Compound: CC(C)C[C@H](NC(=O)[C@H](CCCCN)NC(=O)[C@H](Cc1ccccc1)NC(=O)[C@H](CCC(=O)O)NC(=O)[C@H](CC(C)C)NC(=O)[C@H](CCCN=C(N)N)NC(=O)[C@@H](N)C(C)C)C(=O)N[C@@H](CCC(N)=O)C(=O)N[C@@H](CCC(N)=O)C(=O)N[C@H](C(=O)N[C@@H](CO)C(=O)N[C@@H](CS)C(=O)N[C@@H](CCCN=C(N)N)C(=O)N[C@@H](CCCCN)C(=O)N[C@@H](CCCN=C(N)N)C(=O)N[C@@H](CC(=O)O)C(=O)N[C@@H](Cc1c[nH]c2ccccc12)C(=O)N[C@@H](CCCCN)C(=O)N[C@@H](CCCCN)C(=O)N1CCC[C@H]1C(=O)O)[C@@H](C)O [VRLEFKLQQTSCRKRDWKKP]

From DBAASP
